According to ChEMBL document CHEMBL1629653, “CMY-31 and CMY-36 cephalosporinases encoded by ColE1-like plasmids” (Antimicrob Agents Chemother, 2009):

Columns and labels:
[1] = Ratio of Kcat to Km of CMY-2 by spectrophotometry
How it was run: (§1)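 CMY β-lactamases purified from sonicated, ultracentrifuge-clarified extracts of E. coli DH5α clones (pB-cmy36, pB-cmy2) by Q- then S-Sepharose ion exchange (>90% pure by SDS-PAGE); steady-state hydrolysis kinetics measured spectrophotometrically, CMY-2 run in parallel.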

[2] = Activity of CMY-2 by spectrophotometry; how it was run: as §1

`CC(=O)OCC1=C(C(=O)O)N2C(=O)[C@@H](NC(=O)Cc3cccs3)[C@H]2SC1` gave a kcat/Km [1] of 3.2e+07 M⁻¹ s⁻¹, a Km [2] of 5 µM and a kcat [2] of 160 s⁻¹.
